From article PMC11703230 (bioRxiv, 2025)

Sequences of proteins named here, by UniProt entry; tags and fusion partners are left off. Residues count along the entry.
UniProt P06701, 1-850, stated change not applied: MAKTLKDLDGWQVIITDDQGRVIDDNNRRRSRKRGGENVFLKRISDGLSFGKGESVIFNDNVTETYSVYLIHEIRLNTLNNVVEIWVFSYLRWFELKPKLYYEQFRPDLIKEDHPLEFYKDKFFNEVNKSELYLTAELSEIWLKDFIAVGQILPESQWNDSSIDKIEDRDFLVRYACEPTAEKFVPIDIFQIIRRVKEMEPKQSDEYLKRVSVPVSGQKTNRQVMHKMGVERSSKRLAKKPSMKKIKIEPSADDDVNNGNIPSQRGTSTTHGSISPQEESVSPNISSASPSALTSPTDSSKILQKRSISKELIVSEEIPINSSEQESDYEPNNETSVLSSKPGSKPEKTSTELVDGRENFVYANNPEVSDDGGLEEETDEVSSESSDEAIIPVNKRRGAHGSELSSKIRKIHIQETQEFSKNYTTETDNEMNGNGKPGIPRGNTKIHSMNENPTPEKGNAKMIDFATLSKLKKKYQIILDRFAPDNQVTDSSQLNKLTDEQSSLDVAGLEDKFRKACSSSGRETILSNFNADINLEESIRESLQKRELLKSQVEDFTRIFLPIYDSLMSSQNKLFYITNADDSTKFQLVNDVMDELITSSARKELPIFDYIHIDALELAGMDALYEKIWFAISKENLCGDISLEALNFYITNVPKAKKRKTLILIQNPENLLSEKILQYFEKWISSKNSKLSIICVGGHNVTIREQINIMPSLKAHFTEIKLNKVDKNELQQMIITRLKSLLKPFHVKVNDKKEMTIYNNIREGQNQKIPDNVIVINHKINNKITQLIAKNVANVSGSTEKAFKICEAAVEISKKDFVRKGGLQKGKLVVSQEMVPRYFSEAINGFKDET

Tests used:
[1] = target: Sir3 winged helix deletion (Sir3 1-850) (S. cerevisiae, UniProt P06701); assay: cross-linking
MBP-Sir4(744-1358) = target: T1, MBP-Sir4(744-1358) (S. cerevisiae, UniProt P11978 744-1358); assay: cross-linking
T1 sequence (looked up): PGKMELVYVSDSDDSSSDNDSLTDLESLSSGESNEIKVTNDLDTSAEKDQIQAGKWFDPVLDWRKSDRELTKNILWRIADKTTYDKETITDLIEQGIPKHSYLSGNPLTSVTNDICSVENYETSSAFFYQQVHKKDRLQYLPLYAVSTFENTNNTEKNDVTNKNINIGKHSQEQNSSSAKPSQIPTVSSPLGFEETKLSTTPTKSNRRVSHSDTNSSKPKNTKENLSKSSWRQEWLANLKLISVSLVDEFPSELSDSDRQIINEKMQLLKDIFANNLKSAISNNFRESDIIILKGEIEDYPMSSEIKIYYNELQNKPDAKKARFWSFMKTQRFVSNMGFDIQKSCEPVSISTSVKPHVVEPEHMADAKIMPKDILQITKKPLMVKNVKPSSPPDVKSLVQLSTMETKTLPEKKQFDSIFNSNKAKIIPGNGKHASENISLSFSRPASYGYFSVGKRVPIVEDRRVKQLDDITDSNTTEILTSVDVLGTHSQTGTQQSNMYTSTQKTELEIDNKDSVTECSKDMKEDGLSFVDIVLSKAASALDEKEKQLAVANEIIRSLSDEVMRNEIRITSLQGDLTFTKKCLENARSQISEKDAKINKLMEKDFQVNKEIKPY

binding result [1]: binds
binding result (MBP-Sir4(744-1358)): binds
B1: Sir2 (untagged final), full-length (enzyme, S. cerevisiae, UniProt P06700 1-562, looked up)
chain: MTIPHMKYAVSKTSENKVSNTVSPTQDKDAIRKQPDDIINNDEPSHKKIKVAQPDSLRETNTTDPLGHTKAALGEVASMELKPTNDMDPLAVSAASVVSMSNDVLKPETPKGPIIISKNPSNGIFYGPSFTKRESLNARMFLKYYGAHKFLDTYLPEDLNSLYIYYLIKLLGFEVKDQALIGTINSIVHINSQERVQDLGSAISVTNVEDPLAKKQTVRLIKDLQRAINKVLCTRLRLSNFFTIDHFIQKLHTARKILVLTGAGVSTSLGIPDFRSSEGFYSKIKHLGLDDPQDVFNYNIFMHDPSVFYNIANMVLPPEKIYSPLHSFIKMLQMKGKLLRNYTQNIDNLESYAGISTDKLVQCHGSFATATCVTCHWNLPGERIFNKIRNLELPLCPYCYKKRREYFPEGYNNKVGVAASQGSMSERPPYILNSYGVLKPDITFFGEALPNKFHKSIREDILECDLLICIGTSLKVAPVSEIVNMVPSHVPQVLINRDPVKHAEFDLSLLGYCDDIAAMVAQKCGWTIPHKKWNDLKNKNFKCQEKDKGVYVVTSDEHPKTL
